Our source for the Kd values is PMC8016950.

By UniProt entry, the sequences of proteins in these tests, tags left out. Chains listed by the source or under a name are the forms on record and can include a tag or linker.
UniProt P17931, other isoform, or with tags, fused parts or gaps, stated change not applied: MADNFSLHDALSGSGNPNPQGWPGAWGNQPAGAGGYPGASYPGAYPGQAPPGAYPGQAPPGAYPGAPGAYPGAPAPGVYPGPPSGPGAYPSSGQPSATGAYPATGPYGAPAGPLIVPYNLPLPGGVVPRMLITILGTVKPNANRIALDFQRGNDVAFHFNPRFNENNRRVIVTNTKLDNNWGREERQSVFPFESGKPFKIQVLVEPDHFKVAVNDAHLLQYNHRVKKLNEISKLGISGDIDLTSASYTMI

This test has as its target full length human galectin-3 (hGal3), Cys173 mutated to Thr (human) (UniProt P17931). Kind of test: ELISA; recombinant hGal3 immobilized on a microtiter plate; dilution series of Fab; detection with goat anti-human-kappa-light-chain-IgG alkaline phosphatase conjugate.
For the substance “humanized αhGal3-Fab version "3KYM" (CDRs of M3/38 grafted on the framework of a human anti-LINGO-1 mAb)”, the Kd is 2800 nM.

For the substance “humanized αhGal3-Fab version "4KQ3" (CDRs of M3/38 grafted on the framework of a human anti-IL-17A antibody)”, the dissociation constant Kd was 5.9 nM.

Consider “humanized αhGal3-Fab version "5I8C" (CDRs of M3/38 grafted on the framework of the human HIV-1 neutralizing Fab VRC34.01)”, for which the Kd came to 6.9 nM.
